In patent US20240150321A1, “PYRAZOLYLSULFONAMIDE COMPOUNDS AND THEIR USE IN THERAPY” (HOTSPOT THERAPEUTICS, INC., priority 2022, published 2024):

Test system: NF-kB reporter in Jurkat cells
Assay: NF-kB reporter assay in Jurkat cells stimulated with aCD3/aCD28/PMA
Assay type: cell-based
Details: read-out: NF-kB Reporter Assay IC50, 1 hr compound pre-incubation, aCD3/aCD28/PMA stimulation 4 hr, One-Glo readout
Procedure: Jurkat cells were maintained in complete RPMI 1640 media supplemented with 10% FBS. Prior to the assay, 120 nL of the serial diluted compound was added in each well of 384-well flat bottom white plate (Corning #3570) by using liquid handler Echo550. Jurkat cells were harvested by centrifugation at 120 g for 10 min and resuspended in fresh RPMI 1640 media without serum. […] (25,000 cells) were seeded in each well of 384-well plate containing compound. After 1 hr incubation at 37° C. in a 5% CO2 incubator, […] of diluted aCD3/aCD28/PMA (final concentration at […] and […], respectively) in RPMI 1640 without serum were added to each well. After incubation at 37° C. in 5% CO2 for 4 hr, […] of One-Glo reagent (Promega #E6120) was added into each well. The plate was left at room temperature for 5 min and the signal was measured on EnVision (PerkinElmer).
Compounds in which an IC50 was not measured are designated as “N/A”.

IC50: < 0.4 µM
SMILES: COc1ccc2cnn(C)c2c1NS(=O)(=O)c1cnn(-c2cc(C(C)OC)ccn2)c1 (single isomer, unassigned)
